Source: US8987414 (AILERON THERAPEUTICS, dated 2015)

Protein sequences, listed by entry. Tags and fused reporters are not part of them. Residues count along the entry.
UniProt Q00987, 1-138 limits assumed: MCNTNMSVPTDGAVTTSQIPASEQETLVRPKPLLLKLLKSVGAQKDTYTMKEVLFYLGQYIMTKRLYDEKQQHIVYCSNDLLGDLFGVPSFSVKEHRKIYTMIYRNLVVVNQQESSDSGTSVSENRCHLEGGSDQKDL

How the values were obtained:
MDMX (In-house, 40 kD) = biological target: T1, MDMX (In-house, 40 kD) (UniProt O15151 1-134, limits assumed); assay: direct binding fluorescence polarization, MDMX titrated against 10 nM FAM-labeled peptide
T1 construct: Construct used in the FP assays is described only as in-house, 40 kD; also called MDM4
T1 sequence (looked up): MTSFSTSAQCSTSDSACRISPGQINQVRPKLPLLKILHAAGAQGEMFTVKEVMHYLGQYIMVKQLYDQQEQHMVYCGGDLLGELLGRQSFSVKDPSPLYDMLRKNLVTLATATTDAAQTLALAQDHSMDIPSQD
Procedure: The assay is performed according to the following general protocol: 1. […] 2. […] 3. […] 4. […] 5. […] Then, dilute from 100 µM to 10 µM with water (dilution 1:10) and then dilute with FP buffer from 10 µM to 40 nM (dilution 1:250). This is the working solution which will be a 10 nM concentration in well (dilution 1:4). […] 6.

MDM2 (In-house, 41 kD) = biological target: T2, MDM2 (In-house, 41 kD) (UniProt Q00987 1-138, limits assumed); assay: direct binding fluorescence polarization, MDM2 titrated against 10 nM FAM-labeled peptide
T2 construct: Construct used in the FP assays is described only as in-house, 41 kD; also called HDM2
Procedure: 5. […] Then, dilute from 100 µM to 10 µM with water (dilution 1:10) and then dilute with FP buffer from 10 µM to 40 nM (dilution 1:250). This is the working solution which will be a 10 nM concentration in well (dilution 1:4).

B1: 5-FAM-BaLTFEHYWAQLTS-NH2 (peptide)
peptide: ALTFEHYWAQLTS
modifications: N-terminal 5-FAM label; Ba = beta-alanine before Leu; C-terminal amide (NH2)
notes: Linear fluorescent tracer peptide of the FP assays; also called FAM labeled linear peptide; FAM labeled peptide
A Kd (MDMX (In-house, 40 kD)) of about 51 nM and a Kd (MDM2 (In-house, 41 kD)) of about 13.4 nM were found for B1 in this work.
